## Antibody variant affinities, Ab-14 light chain, assay B

The measurements come from Li et al. 2023 (doi:10.1038/s41467-023-39022-2) through the FLAb antibody collection.

Binding partner: SARS-CoV-2 spike HR2 peptide, sequence PDVDLGDISGINAS.

Parent: Ab-14, a human scFv built as VH, a 15-residue (Gly4Ser)3 linker, VL. Only the CDRs of the light chain vary.
VH: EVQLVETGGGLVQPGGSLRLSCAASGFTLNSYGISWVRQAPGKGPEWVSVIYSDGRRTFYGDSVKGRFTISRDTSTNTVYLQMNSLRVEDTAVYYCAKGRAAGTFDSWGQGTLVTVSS
VL: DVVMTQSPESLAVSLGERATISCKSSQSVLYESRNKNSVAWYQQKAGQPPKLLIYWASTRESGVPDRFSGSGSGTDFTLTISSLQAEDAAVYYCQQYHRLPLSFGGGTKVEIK

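The parent was found by panning a naive human phage display library on the peptide. This is the validation round: designs drawn from the data on random variants, tested in the same kind of assay. Several design methods are mixed in this list. The scFvs were displayed on barcoded MATa yeast, the peptide on MATalpha yeast. The frequency of each diploid, read from paired DNA barcodes, reflects how well the two displayed proteins bind. Each replicate has its own calibration line, from reference interactions of the BCL2 family. Each pool was mated in six replicate cultures.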

Positions count from residue 1 of the parent VL; S25V puts V in place of S.
This list holds designs with at most six substitutions.
Values are apparent Kd, the geometric mean of the replicates that gave a signal; lower means stronger binding.
"nd" means that the variant was in the library but no mating with the target was seen in any replicate; the authors take this as a sign of poor binding, and no number exists.

For S25V/S26Q/V29Q/W56Q, the assay gave 960 pM (6 of 6 replicates). The variant S25F/L30M/W56D/A57G showed 320 pM (6 of 6 replicates). With S26P/R34Q/H98W the result was 97 nM (5 of 6 replicates). The variant S25L/V29D/W56E/Q96D showed 2.8 nM (6 of 6 replicates). The variant S25Q/V29Y/L30G/W56G showed 960 pM (6 of 6 replicates). The variant S26M/S28T/S33D/L102R gave nd (0 of 6 replicates).

With S25L/S26E/Q27G/V29N/K36G/W56N the result was 590 pM (6 of 6 replicates). The variant S25L/V29Y/W56H/E61L showed 5.2 nM (6 of 6 replicates). For S25V/V29F/S38N/W56G, the assay gave 500 pM (6 of 6 replicates). The variant S26M/Q27T/V29M/L30P/W56E/S62L showed 2.0 nM (6 of 6 replicates). The variant K24H/Y31D/W56D gave 930 pM (6 of 6 replicates). The variant S25M/L30P/W56D showed 540 pM (6 of 6 replicates).

The variant S25I/V29D/R34L/W56Q/S62Y gave 16 nM (3 of 6 replicates). With S25L/S33Q/W56G the result was 430 pM (6 of 6 replicates). With S25F/T59L/S62V/S103Y the result was 90 nM (4 of 6 replicates). For K24T/S58G/H98F, the assay gave nd (0 of 6 replicates). The variant S25L/S26R/V29T/W56E showed 990 pM (6 of 6 replicates). For S26E/L30C/T59H, the assay gave 48 nM (2 of 6 replicates).

The variant S25L/L30D/S33D/W56N/T59Q gave 1.1 nM (6 of 6 replicates). With S25V/R34H the result was 3.8 nM (6 of 6 replicates). The variant S25I/S38N/W56G gave 210 pM (6 of 6 replicates). With V29T/Y31Q/E61I the result was 63 nM (6 of 6 replicates). For S25I/Y31F/W56D/T59F, the assay gave 1.2 nM (6 of 6 replicates). For S25L/S26R/V29T/W56N, the assay gave 510 pM (6 of 6 replicates).

The variant S25V/S26E/V29I/L30N/W56N gave 840 pM (6 of 6 replicates). For S28K/V29T/S33G/S62Q, the assay gave 39 nM (1 of 6 replicates). The variant E32F/N35A/K36E showed nd (0 of 6 replicates). With S25V/S26P/V29F/W56E the result was 1.8 nM (6 of 6 replicates). The variant S25V/V29D/W56E/Q96D gave 2.6 nM (6 of 6 replicates). The variant Q27R/Y31E showed 32 nM (6 of 6 replicates).

For K24A/S25A/S28G/V29W/W56G/S62D, the assay gave nd (0 of 6 replicates). With W56H/Q95C the result was 4.1 µM (2 of 6 replicates). The variant S25L/S26Q/V29E/W56E/S62D showed 3.2 nM (6 of 6 replicates). With S25L/W56H/T59Q/E61L the result was 3.3 nM (6 of 6 replicates). The variant S25L/S26E/W56N/T59Q/S62D showed 420 pM (6 of 6 replicates).

Repeated from above, the 5 best binders with a signal in all replicates:

| changes | Kd | seen in |
|---|---|---|
| S25I/S38N/W56G | 210 pM | 6/6 |
| S25F/L30M/W56D/A57G | 320 pM | 6/6 |
| S25L/S26E/W56N/T59Q/S62D | 420 pM | 6/6 |
| S25L/S33Q/W56G | 430 pM | 6/6 |
| S25V/V29F/S38N/W56G | 500 pM | 6/6 |

The parent sequence was in this pool as ten entries: three were never detected, three once, and four in most replicates, with averages from 2.2 nM to 240 nM.
A sequence measured in both rounds can read differently, since the two assays cover different ranges.
The authors' rule: three or more of the six replicates give a measured affinity, fewer mean a poor binder.
Three control strains display no target. For all light chain designs, 4% of the pairings with them gave a signal, with a median of 430 nM and one signal in twenty below 38 nM, so weak values seen in few replicates may be background.